Experimental findings from patent US6545043B1 (priority 1997, dated 2003) are described below.

Test [1] has as its system lesser grain borer (Rhizopertha dominica). The test can be described thus: Fumigation assay, lesser grain borer. The following applies: for effectiveness as fumigant: compared with standards dichlorvos/chloropicrin.
The test system of test [2] is adult house fly (Musca domestica). The test can be described thus: Fumigation assay, adult house fly. The following applies: for times less toxic/effective than chloropicrin: fumigation, adult house fly; for effectiveness as fumigant: compared with standards dichlorvos/chloropicrin.

As for `C=CCC#N` [AC, allyl cyanide], the “effectiveness as fumigant” value in test [1] is “highly effective”. Further, in test [2], the “times less toxic/effective than chloropicrin” value is given as “about 46 times”.

Turning to `C=CCN=C=S` [AITC, allyl isothiocyanate], the “effectiveness as fumigant” value in test [1] and in test [2] was “highly effective” in each case.

As for `C=CCSC#N` [ATC, allyl thiocyanate], the “effectiveness as fumigant” value in test [1] and in test [2] was “highly effective” throughout.

As for `C=CC(O)CC#N` (stereo not shown) [CHB, 1-cyano-2-hydroxy-3-butene], in test [1], the “effectiveness as fumigant” value is listed as “relatively weak (If the compound has an LC50 greater than five times higher than the standard, it is considered to be a relatively weak fumigant)”. Besides, the “times less effective than chloropicrin” value in test [1] (fumigation, lesser grain borer) is 70 times. Also, in test [2], the “times less toxic/effective than chloropicrin” value is reported as “approximately 77 times”.

As for `C=CC(O)C#N` (stereo not shown) [CHP, 3-cyano-3-hydroxy-1-propene], the “effectiveness as fumigant” value in test [1] and in test [2] was “highly effective” throughout. In addition, in test [2], the “times less toxic/effective than chloropicrin” value was determined as 1.9 times.

Consider `C=CC(C#N)OC(C)=O` (stereo not shown) [CHP-Ace, CHP acetate], for which the “effectiveness as fumigant” value in test [1] is given as “highly effective”. For the same compound, the “times less toxic/effective than chloropicrin” value in test [2] was “about 20 times”.

Take `C=CC(C#N)OC(=O)CC` (stereo not shown) [CHP-Pro, CHP propionate]: the “effectiveness as fumigant” value in test [1] is listed as “highly effective”. In addition, the “times more effective than chloropicrin” value in test [1] (fumigation, lesser grain borer) was “about 1.5 times”. For the same compound, in test [2], the “effectiveness as fumigant” value is listed as “relatively weak to moderately effective” and the “times less toxic/effective than chloropicrin” value is on record as “about 60 times”.

For `CC(C)(O)C#N` [DMK-CNOH, dimethyl ketone cyanohydrin], the “effectiveness as fumigant” value in test [1] and in test [2] was “highly effective” in each case.

On to methyl ethyl ketone cyanohydrin, for which the “effectiveness as fumigant” value in test [1] and in test [2] was “highly effective” each time.
